Laboratory results as given in publication PMC12268434 (ACS Omega, 2025).

System: U-87 MG glioma cells
Assay: CCK-8 cell viability assay, U-87 MG
Format: cell-based
Conditions: Homo sapiens, read-out: cell viability at 0.3 μM

COc1cccc2c1C(=O)c1c(O)c3c(c(O)c1C2=O)C[C@@](O)(C(=O)CO)C[C@@H]3O[C@H]1C[C@H](N)[C@H](O)[C@H](C)O1 [DOX, doxorubicin]
viability at 0.3 µM: 49.6 ± 1.9%
